Biological target: DRB1-0101-pp65 (human) (UniProt P01903)
Experiment: ELISA

Substance: pp65
- Kd: 23.6 nM

From patent publication US20240255522A1
